Consider 4 compounds from patent US9062045B2, “Triazolopyridine compounds” (Novartis AG, priority 2012, dated 2015).

Chains of the proteins cited; added tags and fusions are not shown. Lines headed by an entry give the natural chain unless they say otherwise; changes in a name come on top.
UniProt Q14432: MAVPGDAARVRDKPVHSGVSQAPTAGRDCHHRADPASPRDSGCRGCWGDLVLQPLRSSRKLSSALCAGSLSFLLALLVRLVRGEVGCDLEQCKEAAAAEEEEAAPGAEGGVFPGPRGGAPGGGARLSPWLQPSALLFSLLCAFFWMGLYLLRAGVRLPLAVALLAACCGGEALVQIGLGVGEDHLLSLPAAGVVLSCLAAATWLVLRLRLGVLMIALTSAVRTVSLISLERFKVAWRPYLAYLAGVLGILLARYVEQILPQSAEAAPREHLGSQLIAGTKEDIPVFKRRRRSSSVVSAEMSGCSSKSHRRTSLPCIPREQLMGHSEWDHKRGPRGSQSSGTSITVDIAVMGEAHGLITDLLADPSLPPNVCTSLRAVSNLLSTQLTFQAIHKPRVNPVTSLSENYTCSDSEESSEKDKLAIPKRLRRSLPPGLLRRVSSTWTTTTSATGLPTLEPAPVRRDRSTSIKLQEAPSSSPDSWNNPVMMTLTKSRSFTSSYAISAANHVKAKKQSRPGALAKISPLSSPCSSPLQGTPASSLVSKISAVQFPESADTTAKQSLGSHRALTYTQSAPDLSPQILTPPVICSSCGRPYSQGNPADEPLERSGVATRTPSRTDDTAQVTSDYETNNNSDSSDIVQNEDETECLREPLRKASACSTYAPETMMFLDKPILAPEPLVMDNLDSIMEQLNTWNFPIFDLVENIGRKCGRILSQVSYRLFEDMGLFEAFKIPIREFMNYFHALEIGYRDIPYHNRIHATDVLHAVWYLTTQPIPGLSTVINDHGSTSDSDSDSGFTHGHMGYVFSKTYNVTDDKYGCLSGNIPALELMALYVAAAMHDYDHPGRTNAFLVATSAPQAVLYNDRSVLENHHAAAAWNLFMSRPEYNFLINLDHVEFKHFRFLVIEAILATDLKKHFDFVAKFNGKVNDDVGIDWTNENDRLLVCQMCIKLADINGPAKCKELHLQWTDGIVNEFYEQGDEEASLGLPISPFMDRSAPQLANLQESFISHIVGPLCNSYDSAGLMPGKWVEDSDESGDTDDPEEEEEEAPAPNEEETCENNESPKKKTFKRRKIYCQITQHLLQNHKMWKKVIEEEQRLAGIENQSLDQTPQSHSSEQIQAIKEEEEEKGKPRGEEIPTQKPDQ

The target in the experiment is human platelet PDE3 (Homo sapiens (Human), UniProt Q14432). As to the kind of experiment: hPDE3 assay ([3H]cAMP scintillation proximity assay). It is filed as biochemical.

`Cn1cc(-c2ccc3nnc(Sc4ccc5ncc(N6CCCC(N)C6)cc5c4)n3c2)cn1` (stereo not shown) [Example 10, 1-(6-(6-(1-Methyl-1H-pyrazol-4-yl)-[1,2,4]triazolo[4,3-a]pyridin-3-ylthio)quinolin-3-yl)piperidin-3-amine]: the IC50 amounted to 17 µM.

As for `CC1COCCN1c1cnc2ccc(Sc3nnc4ccc(-c5cnn(C)c5)cn34)cc2c1` (stereo not shown) [Example 59, 3-Methyl-4-(6-(6-(1-methyl-1H-pyrazol-4-yl)-[1,2,4]triazolo[4,3-a]pyridin-3-ylthio)quinolin-3-yl)-morpholine], the 50% inhibitory concentration (IC50) was found to be 6 µM.

`Cn1cc(-c2ccc3nnc(Sc4ccc5ncc(N6CCC(N)CC6)cc5c4)n3c2)cn1` [Example 21, 1-(6-(6-(1-Methyl-1H-pyrazol-4-yl)-[1,2,4]triazolo[4,3-a]pyridin-3-ylthio)quinolin-3-yl)piperidin-4-amine] gave an IC50 of 30 µM.

The compound `CN1CCN(c2cnc3ccc(Sc4nnc5ccc(-c6cnn(C)c6)cn45)cc3c2)CC1` [Example 74, 3-(4-Methyl-piperazin-1-yl)-6-[6-(1-methyl-1H-pyrazol-4-yl)-[1,2,4]triazolo[4,3-a]pyridin-3-ylsulfanyl]-quinoline] showed an IC50 of 18 µM. Compared with the last compound, the IC50 is about 1.7-fold lower.
